Laboratory results reported in BindingDB's records for doi:10.1016/j.chembiol.2011.05.012 (University of Bern, 2011).

Sequences of proteins named here, by UniProt entry; tags and fusion partners are left off.
UniProt P34972, whole entry: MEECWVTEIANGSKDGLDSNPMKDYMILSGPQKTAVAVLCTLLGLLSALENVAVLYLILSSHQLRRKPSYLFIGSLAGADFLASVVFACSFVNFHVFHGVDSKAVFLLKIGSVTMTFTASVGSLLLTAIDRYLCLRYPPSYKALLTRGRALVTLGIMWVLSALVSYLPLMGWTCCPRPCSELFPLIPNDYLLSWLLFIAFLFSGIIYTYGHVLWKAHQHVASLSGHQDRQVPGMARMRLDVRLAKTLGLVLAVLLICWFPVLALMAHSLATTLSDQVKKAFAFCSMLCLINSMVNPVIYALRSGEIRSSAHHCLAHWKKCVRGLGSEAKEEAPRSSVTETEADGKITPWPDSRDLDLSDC

Target: Cannabinoid receptor 2 (Homo sapiens, UniProt P34972)
Test: Binding Assay
Source text: Binding assay with hCB1 and hCB2 receptors.

Structure (SMILES): CCCCC/C=C/C/C=C/C/C=C/C/C=C/CCCC(=O)NCCO [Arachidonoylethanolamide, AEA]
- Ki: 278 nM
